The record followed here is patent publication US20250062039A1, “ESTIMATION OF PHARMACOKINETIC (PK) PARAMETERS OF DRUG CANDIDATES USING UNIVERSAL PK PARAMETERS BOUNDS” (Tata Consultancy Services Limited, priority 2023, published 2025).

This is a selection: effects in other tests are not listed, and their absence says nothing.

This data set is described as follows: Published pharmacokinetics of alfentanil, IV bolus, 7 subjects (Bower & Hull 1982). The settings on record: IV Bolus 161.74 μg; maximum over 7 subjects (Rule 1).

For the compound `CCC(=O)N(c1ccccc1)C1(COC)CCN(CCn2nnn(CC)c2=O)CC1`, the “CL, Selected Parameter Value” turned out to be 23.38 L/h; the “K10, Selected Parameter Value” was 2.11 h⁻¹; the “K12, Selected Parameter Value” turned out to be 5.39 h⁻¹; the “K21, Selected Parameter Value” turned out to be 3.68 h⁻¹. The “T1/2beta, Selected Parameter Value” worked out at 2.34 h; the “V1, Selected Parameter Value” amounted to 15.17 L; the “V2, Selected Parameter Value” is given as 24.18 L; the “Vss, Selected Parameter Value” is listed as 38.69 L.
